Assay results reported in ChEMBL document CHEMBL1141517, “Separate synthesis and evaluation of glucitol bis-phosphate and mannitol bis-phosphate, as competitive inhibitors of fructose bis-phosphate aldolases” (Bioorg Med Chem Lett, 2008).

What was measured:
Oryctolagus cuniculus = species: Oryctolagus cuniculus; conditions: Muscle tissue

Km (Oryctolagus cuniculus): 20 µM
Km (Saccharomyces cerevisiae): 200 µM
Km (Helicobacter pylori): 20 µM
SMILES: O=C(COP(=O)(O)O)[C@H](O)[C@H](O)[C@@H](O)COP(=O)(O)O
